Molecular target: Tyk2 (Homo sapiens (Human), UniProt P29597)
Assay: LanthaScreen JAK biochemical assay (Tyk2); also: ATP at Km 10 µM
Settings: read-out: Tyk 2 (PKi)

The chains behind the UniProt entries cited, without tags or fusion partners. Where a name states a change or a piece, a line headed by the entry shows the natural chain unless it says otherwise.
UniProt P29597: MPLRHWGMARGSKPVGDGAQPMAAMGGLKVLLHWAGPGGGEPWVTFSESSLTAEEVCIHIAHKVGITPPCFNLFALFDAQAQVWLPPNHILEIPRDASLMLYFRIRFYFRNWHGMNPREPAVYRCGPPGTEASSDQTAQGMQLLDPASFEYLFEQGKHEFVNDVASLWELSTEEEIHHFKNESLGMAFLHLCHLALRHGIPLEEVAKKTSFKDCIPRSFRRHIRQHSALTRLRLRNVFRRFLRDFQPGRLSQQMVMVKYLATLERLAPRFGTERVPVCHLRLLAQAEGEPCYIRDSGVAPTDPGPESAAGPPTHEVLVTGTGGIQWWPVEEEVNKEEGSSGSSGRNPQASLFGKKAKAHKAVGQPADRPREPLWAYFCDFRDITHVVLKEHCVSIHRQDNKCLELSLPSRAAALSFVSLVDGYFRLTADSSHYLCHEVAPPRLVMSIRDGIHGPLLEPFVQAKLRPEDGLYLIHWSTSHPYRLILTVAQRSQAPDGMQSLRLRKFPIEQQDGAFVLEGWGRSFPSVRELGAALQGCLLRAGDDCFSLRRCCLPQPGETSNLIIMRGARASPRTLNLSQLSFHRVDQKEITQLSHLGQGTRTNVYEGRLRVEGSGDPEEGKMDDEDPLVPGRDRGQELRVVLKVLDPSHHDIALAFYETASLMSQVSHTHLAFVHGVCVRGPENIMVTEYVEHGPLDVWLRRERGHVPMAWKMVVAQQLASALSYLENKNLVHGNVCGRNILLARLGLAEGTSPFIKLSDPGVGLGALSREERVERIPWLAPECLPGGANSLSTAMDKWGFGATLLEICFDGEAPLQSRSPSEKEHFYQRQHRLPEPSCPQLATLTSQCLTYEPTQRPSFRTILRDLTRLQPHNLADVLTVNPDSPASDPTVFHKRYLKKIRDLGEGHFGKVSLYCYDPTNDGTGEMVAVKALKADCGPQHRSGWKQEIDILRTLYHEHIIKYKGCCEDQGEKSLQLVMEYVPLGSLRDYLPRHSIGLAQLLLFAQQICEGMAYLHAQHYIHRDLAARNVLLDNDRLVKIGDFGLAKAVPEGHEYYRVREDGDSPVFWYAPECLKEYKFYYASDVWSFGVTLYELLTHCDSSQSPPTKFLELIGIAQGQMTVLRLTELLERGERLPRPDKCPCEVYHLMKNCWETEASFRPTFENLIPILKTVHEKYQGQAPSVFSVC

## CCc1cc(O)c(F)cc1-c1ccc2c(-c3nc4c([nH]3)CCN(CCN3CCCC3)C4)n[nH]c2c1 [Example 16, 5-Ethyl-2-fluoro-4-(3-(5-(2-(pyrrolidin-1-yl)ethyl)-4,5,6,7-tetrahydro-1H-imidazo[4,5-c]pyridin-2-yl)-1H-indazol-6-yl)phenol]
  Ki: 0.1 to 1 nM

— patent US10100049B2, “JAK kinase inhibitor compounds for treatment of respiratory disease” (THERAVANCE BIOPHARMA R&D IP, LLC, priority 2015, dated 2018)
